Assay results published in patent publication US11597726B2 (Certego Therapeutics Inc., priority 2020, dated 2023).

Test system: c-fos
Assay: Pharmacomapping: whole-brain drug-evoked c-fos activation
Details: for doses at which strong activation of the caudoputamen (CP) is seen: gaboxadol tested at 6 to 50 mg/kg, d2-gaboxadol at 6 to 30 mg/kg
[1] = gaboxadol at 30 mg/kg and higher, d2-gaboxadol at 10 mg/kg and higher
[2] = gaboxadol at 10 and 20 mg/kg, d2-gaboxadol at 6 mg/kg

SMILES | activation of medial orbital cortex (ORBm) and accessory olfactory nucleus (AON) [1] | activation of medial orbital cortex (ORBm) and accessory olfactory nucleus (AON) [2] | doses at which strong activation of the caudoputamen (CP) is seen
[2H]C1([2H])NCCc2c1o[nH]c2=O [d2-gaboxadol 7,7, 4,5,6,7-tetrahydroisoxazolo[5,4-c]pyridin-3(2H)-one-7,7-d2] | strongly diminished | Strong activation | already at 10 mg/kg as well as at 20 and 30 mg/kg
Oc1noc2c1CCNC2 [gaboxadol, 4,5,6,7-tetrahydroisoxazolo (5,4-c) pyridin-3-ol] | strongly diminished | Strong activation | only at higher doses of 30, 40 and 50 mg/kg
